Patent US20230406950A1 (LYVGEN BIOPHARMA, published 2023)

Amino acid sequences for entries named in this document (tags omitted). Residues count along the entry.
UniProt Q07011, 24-255: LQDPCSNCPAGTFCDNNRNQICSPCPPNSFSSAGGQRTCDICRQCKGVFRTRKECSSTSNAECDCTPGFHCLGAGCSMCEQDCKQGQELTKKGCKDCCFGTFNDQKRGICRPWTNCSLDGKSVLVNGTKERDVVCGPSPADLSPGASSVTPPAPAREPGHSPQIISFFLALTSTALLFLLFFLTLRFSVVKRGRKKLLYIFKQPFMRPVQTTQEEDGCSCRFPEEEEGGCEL

T1: human GITR expressed on cells (human, UniProt Q9Y5U5 26-241)
T1 construct: whole, on cells; also called TNFRSF18; CD357
T1 sequence (looked up): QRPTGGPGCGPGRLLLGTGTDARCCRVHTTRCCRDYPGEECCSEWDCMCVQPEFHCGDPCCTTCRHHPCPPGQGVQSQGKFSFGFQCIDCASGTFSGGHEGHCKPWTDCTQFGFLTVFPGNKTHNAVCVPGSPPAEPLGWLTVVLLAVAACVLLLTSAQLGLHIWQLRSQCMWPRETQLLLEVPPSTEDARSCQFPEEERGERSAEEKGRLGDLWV


Tests used:
[1] = target: T1, human GITR expressed on cells; assay: flow cytometry (FACS), MFI, CHO cells expressing human GITR
Method: (§1) Anti-GITR/CD137 bi-specific antibodies were analyzed by FACS for their binding properties to human GITR and/or human CD137 expressed on CHO cells. Briefly, cultured cells were harvested, counted and cell viability was evaluated using the Trypan Blue exclusion method. Viable cells were then adjusted to 2×10⁶ cells per mL in PBS containing 2% BSA. 100 μL of this cell suspension were further aliquoted per well into a V-bottom 96-well plate. […] After incubation for 2 hours at 4° C., cells were centrifuged (3 min, 1000× g), washed with 250 μL/well BSA-containing FACS Stain Buffer, resuspended and incubated for an additional 1 hour at 4° C. with 100 μL/well fluorochrome-conjugated anti-IgG antibody for detection of the bisepecific antibody. Cells were then washed with 250 μL/well BSA-containing FACS Stain Buffer, resuspended in 100 μL/well FACS Stain Buffer, acquired and analyzed using a FACS machine. Binding of the bispecific antibodies to human GITR or human CD137 expressing CHO cells were evaluated and the mean fluorescence intensity is plotted in histograms or dot plots.

[2] = target: T2, human CD137 expressed on cells (human, UniProt Q07011 24-255); assay: FACS on CHO cells expressing human CD137 (MFI)
T2 construct: whole, on cells; also called 4-1BB; TNFRSF9
Method: as §1

| binding result [1] | EC50 (read off the curve) [2] | Binder |
| --- | --- | --- |
| binds | ~0.3 µg/mL | Ly760 (bispecific antibody, human IgG1, kappa) heavy: QVQLQESGPGLVKPSETLSLTCTVSGFSLTSYNVHWIRQPPGKGLEWIGVIWSGVRTDYNSVLKPRVTISVDTSKNQFSLKLSSVTAADTAVYYCARGTYDDNYHDVMDAWGQGTLVTVSSASTKGPSVFPLAPSSKSTSGGTAALGCLVKDYFPEPVTVSWNSGALTSGVHTFPAVLQSSGLYSLSSVVTVPSSSLGTQTYICNVNHKPSNTKVDKKVEPKSCDKTHTCPPCPAPELLGPSVFLFPPKPKDTLMISRTPEVTCVVVDVSHEDPEVKFNWYVDGVEVHNAKTKPREEQYNSTYRVVSVLTVLHQDWLNGKEYKCKVSNKALPAPIEKTISKAKGQPREPQVYTLPPSREEMTKNQVSLTCLVKGFYPSDIAVEWESNGQPENNYKTTPPVLDSDGSFFLYSKLTVDKSRWQQGNVFSCSVMHEALHNHYTQKSLSLSPGK light: EIVLTQSPATLSLSPGERATLSCRASKSVRTGMHWYQQKPGQAPRLLIYGASNLESGIPARFSGSGSGTDFTLTISSLEPEDFAVYYCQQSWNHFTFGQGTKLEIKRTVAAPSVFIFPPSDEQLKSGTASVVCLLNNFYPREAKVQWKVDNALQSGNSQESVTEQDSKDSTYSLSSTLTLSKADYEKHKVYACEVTHQGLSSPVTKSFNRGECGGGGSGGGGSGGGGSGGGGSDIQMTQSPSSLSASVGDRVTITCRASQDIRSNLNWYQQKPGGAVKLLIYYTSRLHSGVPSRFSGSGSGTDYTLTISSLQPEDFATYFCQQSEKLPRTFGGGTKVEIRGGGGSGGGGSGGGGSGGGGSQVQLVQSGAEVKKPGASVKVSCKASGYTFAGFEMHWVRQAPGQGLEWMGAIDPKTGGTDYNQKFKDRVTMTRDTSISTAYMELSRLRSDDTAVYYCARDLGYFDVWGQGTLVTVSS |
|  | ~0.3 µg/mL | Ly761 (bispecific antibody, human IgG1, kappa) heavy: QVQLQESGPGLVKPSETLSLTCTVSGFSLTSYNVHWIRQPPGKGLEWIGVIWSGVRTDYNSVLKPRVTISVDTSKNQFSLKLSSVTAADTAVYYCARGTYDDNYHDVMDAWGQGTLVTVSSASTKGPSVFPLAPSSKSTSGGTAALGCLVKDYFPEPVTVSWNSGALTSGVHTFPAVLQSSGLYSLSSVVTVPSSSLGTQTYICNVNHKPSNTKVDKKVEPKSCDKTHTCPPCPAPELLGPSVFLFPPKPKDTLMISRTPEVTCVVVDVSHEDPEVKFNWYVDGVEVHNAKTKPREEQYNSTYRVVSVLTVLHQDWLNGKEYKCKVSNKALPAPIEKTISKAKGQPREPQVYTLPPSREEMTKNQVSLTCLVKGFYPSDIAVEWESNGQPENNYKTTPPVLDSDGSFFLYSKLTVDKSRWQQGNVFSCSVMHEALHNHYTQKSLSLSPGK light: EIVLTQSPATLSLSPGERATLSCRASKSVRTGMHWYQQKPGQAPRLLIYGASNLESGIPARFSGSGSGTDFTLTISSLEPEDFAVYYCQQSWNHFTFGQGTKLEIKRTVAAPSVFIFPPSDEQLKSGTASVVCLLNNFYPREAKVQWKVDNALQSGNSQESVTEQDSKDSTYSLSSTLTLSKADYEKHKVYACEVTHQGLSSPVTKSFNRGECGGGGSGGGGSGGGGSGGGGSQVQLVQSGAEVKKPGASVKVSCKASGYTFAGFEMHWVRQAPGQGLEWMGAIDPKTGGTDYNQKFKDRVTMTRDTSISTAYMELSRLRSDDTAVYYCARDLGYFDVWGQGTLVTVSSGGGGSGGGGSGGGGSGGGGSDIQMTQSPSSLSASVGDRVTITCRASQDIRSNLNWYQQKPGGAVKLLIYYTSRLHSGVPSRFSGSGSGTDYTLTISSLQPEDFATYFCQQSEKLPRTFGGGTKVEIR |
